Results as given in patent US20260207589A1, “Combination of Talazoparib and Enzalutamide in the Treatment of Metastatic Castration-Resistant Prostate Cancer” (Pfizer Inc., priority 2022, published 2026).

System: patients with mCRPC with HRR gene alterations
Experiment: TALAPRO-2 (NCT03395197) Phase 3, Part 2, DDR/HRR-deficient cohort (Cohort 2): efficacy
Format: in vivo, human
Conditions: for Median rPFS by BICR: BRCA1/2 mutations (BRCAm) subgroup
Procedure: In one embodiment, the increase in survival is measured by any of the following: progression free survival (PFS), radiographic PFS (rPFS), and overall survival (OS). PFS, rPFS and OS are clinically meaningful endpoints for measuring an increase in survival for patients treated with the combination of the present invention. […] OS is the length of time from either the date of diagnosis or the start of treatment for a disease, such as cancer, that patients diagnosed with the disease are still alive. In a clinical trial, measuring the PFS and OS are ways to see how well a new treatment works. For purposes of the clinical trial described here, rPFS refers to the time from the date of randomization to first objective evidence of radiographic progression assessed in soft tissue per Response Evaluation Criteria in Solid Tumors version 1.1 (RECIST 1.1) or in bone (upon subsequent confirmation) per Prostate Cancer Working Group (PCWG3) guidelines by Blinded Independent Central Review (BICR), or death, whichever occurs first. […]
Part 2 was randomized, double-blind, and placebo-controlled and evaluated the efficacy and safety of talazoparib in combination with enzalutamide compared with placebo in combination with enzalutamide. […] Stratification factors were specified by the investigator, and recorded in the interactive web response system (IWRS) before randomization and used for the stratified analysis of the primary efficacy endpoint. […]
Genomic screening to identify alterations in DDR genes was optional for patients in Part 1, but it was required for randomization in Part 2. Mutational status was determined by testing for the presence of mutations in defined DDR genes likely to sensitize to PARP inhibition using next generation sequencing (NGS) based gene panel test. […] For exploratory analysis, available blood-based samples (not collected in China) were retrospectively tested using FoundationOneLiquid® CDx to determine the status of patients with a prospectively-assessed status of unknown.

Question: Which results are given for CNC(=O)c1ccc(N2C(=S)N(c3ccc(C#N)c(C(F)(F)F)c3)C(=O)C2(C)C)cc1F [Placebo + Enzalutamide]?
Answer: Median rPFS by BICR: 11 months; Median rPFS by BICR (listed as Placebo with Enzalutamide): 11.0 (8.3, 11.1) months; Median time to PSA progression (DDR-deficient population): 11.1 months
